Experiment [1] in a line: NCI Yeast Anticancer Drug Screen. Data for the rad50 strain (AID 155).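 Also: 0% = growth of vehicle-only cultures of the same strain.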 The settings on record: S. cerevisiae rad50 strain growth inhibition, stronger effect = higher value.
The nature of experiment [2]: NCI Yeast Anticancer Drug Screen. Data for the mec2-1 strain (AID 157). The conditions noted are these: S. cerevisiae mec2-1 strain, stronger effect = higher value.
Experiment [3] is described as follows: NCI Yeast Anticancer Drug Screen. Data for the sgs1 mgt1 strain (AID 161).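 Also: 0% = growth of cultures given vehicle only.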 The settings on record: S. cerevisiae sgs1 mgt1 strain, stronger effect = higher value.
Experiment [4] in a line: NCI Yeast Anticancer Drug Screen. Data for the cln2 rad14 strain (AID 165).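 Also: 0% = growth equal to vehicle treated cultures.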 The settings on record: S. cerevisiae cln2 rad14 strain, stronger effect = higher value.
Experiment [5] in a line: NCI Yeast Anticancer Drug Screen. Data for the bub3 strain (AID 167). The conditions noted are these: S. cerevisiae bub3 mutant strain, stronger effect = higher value.
Experiment [6] is described as follows: NCI Yeast Anticancer Drug Screen. Data for the mlh1 rad18 strain (AID 175). The conditions noted are these: S. cerevisiae mlh1 rad18 strain growth inhibition, stronger effect = higher value.
Where [7] appears, read: at 5.0 µM (retest, dose inferred, filed as 0.5).
Where [8] appears, read: at 50.0 µM (retest, dose inferred, filed as 5.0).

Where “and” joins values, the source holds several entries; their conditions need not be identical. Identical values can stand only once. This is a selection; strong and weak results do not stand in their true shares. More than one record can exist for a structure, and the calls need not agree. Calls of active or inactive are those of the source. Rule as the data show it: active = growth inhibition above about 70%; inactive = the rest.

For `O=[N+]([O-])c1ccc(N/N=C/C=N/Nc2ccc([N+](=O)[O-])cc2[N+](=O)[O-])c([N+](=O)[O-])c1`, the growth inhibition in experiment [1] (setting [7]) was inactive: 5%; in experiment [1] (setting [8]), inactive: 14%; in experiment [1] (at 50.0 µM), inactive: 5.55%; in experiment [2] (setting [7]) it was inactive: 3%; in experiment [2] (setting [8]), inactive: 5%; in experiment [2] (at 50.0 µM), inactive: 16.7%. Besides, the growth inhibition in experiment [3] (setting [7]) is inactive: -1%; in experiment [3] (setting [8]), inactive: 6%; in experiment [3] (at 50.0 µM), inactive: -12.8%; in experiment [4] (setting [7]) it was inactive: 4%; in experiment [4] (setting [8]), inactive: 4%; in experiment [4] (at 50.0 µM), inactive: -1%. Besides, the growth inhibition in experiment [5] (setting [7]) is inactive: -3%; in experiment [5] (setting [8]) it was inactive: 0%; in experiment [5] (at 50.0 µM), inactive: 2%; in experiment [6] (setting [7]), inactive: 3%; in experiment [6] (setting [8]), inactive: -53%; in experiment [6] (at 50.0 µM), inactive: -9.4%.
With `O=C(C(=O)c1ccc([N+](=O)[O-])cc1[N+](=O)[O-])c1ccc([N+](=O)[O-])cc1[N+](=O)[O-]`, the growth inhibition in experiment [1] (setting [7]) was inactive: 13%; in experiment [1] (setting [8]) it was active: 89%; in experiment [1] (at 50.0 µM), active: 73.9%; in experiment [2] (setting [7]), inactive: 7%; in experiment [2] (setting [8]), inactive: 56%; in experiment [2] (at 50.0 µM), inactive: 53.4%. For the same molecule, the growth inhibition in experiment [3] (setting [7]) was inactive: 10%; in experiment [3] (setting [8]) it was active: 73%; in experiment [3] (at 50.0 µM), active: 77.2%; in experiment [4] (setting [7]) it was inactive: 6%; in experiment [4] (setting [8]), inactive: 36%; in experiment [4] (at 50.0 µM), inactive: 3.05%. The growth inhibition in experiment [5] (setting [7]) was inactive: 8%; in experiment [5] (setting [8]), active: 73%; in experiment [5] (at 50.0 µM), active: 75.9%; in experiment [6] (setting [7]), inactive: 19%; in experiment [6] (setting [8]), active: 83%; in experiment [6] (at 50.0 µM), active: 87.7%.
On to `COc1ccc2c(c1)C1(C)CCC(O2)C12CO2` (configuration not stated), for which the growth inhibition was active: 82% in experiment [1] (setting [7]); active: 91% in experiment [1] (setting [8]); active: 89.2% in experiment [1] (at 50.0 µM); inactive: 37% in experiment [2] (setting [7]); inactive: 41% in experiment [2] (setting [8]); active: 90.2% in experiment [2] (at 50.0 µM). Also, the growth inhibition in experiment [3] (setting [7]) was inactive: 13%; in experiment [3] (setting [8]), inactive: 45%; in experiment [3] (at 50.0 µM), active: 89.6%; in experiment [4] (setting [7]), active: 76%; in experiment [4] (setting [8]), active: 91%; in experiment [4] (at 50.0 µM), active: 88.8%. The growth inhibition was inactive: 19% in experiment [5] (setting [7]); inactive: 11% in experiment [5] (setting [8]); active: 89.9% in experiment [5] (at 50.0 µM); inactive: 31% in experiment [6] (setting [7]); inactive: 46% in experiment [6] (setting [8]); inactive: -38.8% in experiment [6] (at 50.0 µM).
Regarding `O=P1(N(CCCl)CCCl)NCC(CO)O1` (configuration not stated), the growth inhibition in experiment [1] (setting [7]) is inactive: 48%; in experiment [1] (setting [8]), active: 95%; in experiment [1] (at 50.0 µM), active: 87.8% and inactive: -5.1%; in experiment [2] (setting [7]) it was inactive: 18%; in experiment [2] (setting [8]), active: 93%; in experiment [2] (at 50.0 µM), inactive: 27.5% and inactive: 7.5%. Further, the growth inhibition in experiment [3] (setting [7]) is inactive: 30%; in experiment [3] (setting [8]) it was active: 93%; in experiment [3] (at 50.0 µM) it was active: 76.2% and inactive: -6.55%; in experiment [4] (setting [7]), inactive: 6%; in experiment [4] (setting [8]) it was active: 84%; in experiment [4] (at 50.0 µM), inactive: 15.7% and inactive: -31.6%. The growth inhibition in experiment [5] (setting [7]) was inactive: 44%; in experiment [5] (setting [8]), active: 95%; in experiment [5] (at 50.0 µM), inactive: 55.1% and inactive: 7.35%; in experiment [6] (setting [7]), inactive: 42%; in experiment [6] (setting [8]), active: 95%; in experiment [6] (at 50.0 µM), inactive: 46% and inactive: 15%.
For `CCOP1(=O)N=C(C)NC(C)=N1`, the growth inhibition in experiment [1] (setting [7]) was inactive: -1%; in experiment [1] (setting [8]), inactive: -10%; in experiment [1] (at 50.0 µM) it was inactive: -0.5%; in experiment [2] (setting [7]), inactive: 1%; in experiment [2] (setting [8]), inactive: -6%; in experiment [2] (at 50.0 µM), inactive: -10.1%. Further, the growth inhibition in experiment [3] (setting [7]) is inactive: -4%; in experiment [3] (setting [8]) it was inactive: -8%; in experiment [3] (at 50.0 µM), inactive: -7.4%; in experiment [4] (setting [7]), inactive: 2%; in experiment [4] (setting [8]), inactive: -13%; in experiment [4] (at 50.0 µM), inactive: 9.8%. The growth inhibition is inactive: 2% in experiment [5] (setting [7]); inactive: 0% in experiment [5] (setting [8]); inactive: 9.65% in experiment [5] (at 50.0 µM); inactive: -1% in experiment [6] (setting [7]); inactive: -13% in experiment [6] (setting [8]); inactive: -2.55% in experiment [6] (at 50.0 µM).
With `ClCCN(CCCl)c1ccc(CN2CCCCC2)cc1`, the growth inhibition in experiment [1] (setting [7]) was active: 81%; in experiment [1] (setting [8]), active: 98%; in experiment [1] (at 50.0 µM), inactive: 64.2%; in experiment [2] (setting [7]), inactive: 55%; in experiment [2] (setting [8]), active: 98%; in experiment [2] (at 50.0 µM), inactive: 22.8%. Besides, the growth inhibition in experiment [3] (setting [7]) was active: 78%; in experiment [3] (setting [8]), active: 98%; in experiment [3] (at 50.0 µM) it was active: 73.7%; in experiment [4] (setting [7]) it was inactive: 65%; in experiment [4] (setting [8]) it was active: 96%; in experiment [4] (at 50.0 µM), inactive: 57.8%. The growth inhibition is active: 73% in experiment [5] (setting [7]); active: 97% in experiment [5] (setting [8]); inactive: 64.7% in experiment [5] (at 50.0 µM); active: 73% in experiment [6] (setting [7]); active: 95% in experiment [6] (setting [8]); inactive: 69.7% in experiment [6] (at 50.0 µM).
For the molecule `O=[N+]([O-])c1cc(C(c2cc([N+](=O)[O-])c(Cl)c([N+](=O)[O-])c2)C(Cl)(Cl)Cl)cc([N+](=O)[O-])c1Cl`, the growth inhibition in experiment [1] (setting [7]) is active: 98%; in experiment [1] (setting [8]) it was active: 88%; in experiment [1] (at 50.0 µM), inactive: 5.05%; in experiment [2] (setting [7]), active: 99%; in experiment [2] (setting [8]), active: 93%; in experiment [2] (at 50.0 µM), inactive: 45.8%. Moreover, the growth inhibition in experiment [3] (setting [7]) is active: 99%; in experiment [3] (setting [8]), active: 92%; in experiment [3] (at 50.0 µM), inactive: 20.9%; in experiment [4] (setting [7]) it was active: 98%; in experiment [4] (setting [8]) it was active: 88%; in experiment [4] (at 50.0 µM) it was inactive: 15.5%. The growth inhibition is active: 98% in experiment [5] (setting [7]); active: 91% in experiment [5] (setting [8]); active: 96.5% in experiment [5] (at 50.0 µM); active: 98% in experiment [6] (setting [7]); active: 92% in experiment [6] (setting [8]); inactive: 65.2% in experiment [6] (at 50.0 µM).
For the molecule `O=[N+]([O-])c1ccc(N(CCS(=O)O)c2ccc([N+](=O)[O-])cc2[N+](=O)[O-])c([N+](=O)[O-])c1`, the growth inhibition was inactive: 35% in experiment [1] (setting [7]); inactive: 35% in experiment [1] (setting [8]); inactive: 42.1% in experiment [1] (at 50.0 µM); inactive: 24% in experiment [2] (setting [7]); inactive: 24% in experiment [2] (setting [8]); active: 81.6% in experiment [2] (at 50.0 µM). The growth inhibition is inactive: 49% in experiment [3] (setting [7]); inactive: 49% in experiment [3] (setting [8]); active: 78.3% in experiment [3] (at 50.0 µM); inactive: 23% in experiment [4] (setting [7]); inactive: 23% in experiment [4] (setting [8]); active: 79.3% in experiment [4] (at 50.0 µM). Besides, the growth inhibition is inactive: 20% in experiment [5] (setting [7]); inactive: 20% in experiment [5] (setting [8]); active: 81.1% in experiment [5] (at 50.0 µM); inactive: 36% in experiment [6] (setting [7]); inactive: 36% in experiment [6] (setting [8]); active: 70.7% in experiment [6] (at 50.0 µM).
`O=[N+]([O-])c1ccc2nn([N+](=O)[O-])cc2c1`: the growth inhibition is active: 79% in experiment [1] (setting [7]); active: 99% in experiment [1] (setting [8]); active: 99.5% in experiment [1] (at 50.0 µM); active: 97% in experiment [2] (setting [7]); active: 100% in experiment [2] (setting [8]); active: 99.3% in experiment [2] (at 50.0 µM). The growth inhibition in experiment [3] (setting [7]) was active: 94%; in experiment [3] (setting [8]), active: 99%; in experiment [3] (at 50.0 µM), active: 99.4%; in experiment [4] (setting [7]), inactive: 63%; in experiment [4] (setting [8]), active: 96%; in experiment [4] (at 50.0 µM), active: 99.3%. For the same molecule, the growth inhibition in experiment [5] (setting [7]) was active: 99%; in experiment [5] (setting [8]), active: 99%; in experiment [5] (at 50.0 µM), active: 99.2%; in experiment [6] (setting [7]) it was active: 87%; in experiment [6] (setting [8]), active: 99%; in experiment [6] (at 50.0 µM) it was active: 99.5%.

For the origin of these results see PubChem BioAssay (NCI).
